The values that follow are results of earlier work, collected in article PMC10957332.

Usually Kd stands for the equilibrium constant for the complex coming apart.

Data set [1] deals with Histone H3 peptide (H3K36me2) (Homo sapiens) (UniProt P68431).
For data set [2], the target named is Histone H3 peptide (H3K4me0) N-terminal tail (Homo sapiens) (UniProt P68431).
The target of data set [3] is Histone H3 peptide (H3K4me3) N-terminal tail (Homo sapiens) (UniProt P68431).

In the case of DNMT3A PWWP (from UniProt Q9Y6K1), in data set [1], the Kd was 63 µM.

Take DNMT3A ADD (from UniProt Q9Y6K1): the Kd in data set [2] is 0.82 µM; in data set [3], 35.6 µM.
